Source: patent US20260083674A1, “OXAZOLIDINONE LIPOSOME COMPOSITIONS” (priority 2021, published 2026)

What was measured:
[1] = test system: M. tuberculosis Erdman or H37Rv vs VERO or HepG2 cell lines; assay: Selectivity Index (IC50 mammalian cells / MIC bacteria); design: species or system Mycobacterium tuberculosis; details: for Selectivity Index (SI) H37Rv/HepG2: IC50 HepG2 / MIC H37Rv; for Selectivity Index (SI) H37Rv/VERO: IC50 VERO / MIC H37Rv
[2] = Liposome loading: encapsulated drug-to-lipid ratio and encapsulation efficiency; format: physicochemical; details: 1 N TEA-SOS liposomes, DL0 500 g/mol PhL, pH 4.38
Protocol: 1. The lipid components (phospholipid (PhL), cholesterol, and optionally—a PEG-lipid derivative and/or a lipid fluorescent label were combined in an amount of 100% ethanol equal to one-tenth of a volume (V) calculated to obtain lipid suspension with about 60 mM phospholipid and stirred at the temperature of 65-68° C. until complete dissolution of the lipids.
2. The ethanolic lipid solution was combined with volume V of the trapping agent solution (0.25-0.5 M ammonium sulfate or 1 N triethylammonium sucrose octasulfate) upon stirring at 65-68° C. until a uniform suspension was obtained.
3. […]
6. The lipid concentration in a purified extruded liposome preparation was determined using HPLC with UV detection, by measuring the concentration of cholesterol and correcting for the known phospholipid/cholesterol molar ratio. Alternatively, a spectrophotometric blue phosphomolybdate method was used to directly quantify the phospholipid content. […]
8. Purified liposomes of step 5 and the drug stock solution were combined in the presence of an osmotic agent (typically dextrose) and water in the amounts necessary to provide a desired drug-to-phospholipid (DL) ratio, the drug concentration in the range 1.5-3.3 mg/ml, at the osmolality equal to the measured osmolality of the trapping agent solution of step 2. […]

[3] = test system: mitochondrial protein synthesis vs H37Rv M. tuberculosis; assay: MPS selectivity index (MPS IC50 / MIC H37Rv)

## CN(C)CCn1nnc(-c2ccc(-c3ccc(N4C[C@H](CO)OC4=O)cc3F)cn2)n1 [AKG-16]
[1]
  Selectivity Index (SI) H37Rv/HepG2: 364.0
  Selectivity Index (SI) H37Rv/VERO: 388.0
[2]
  loading efficiency: 93.3%
[3]
  SI-MPS MPS/H37: 0.98

## CC(=O)NC[C@H]1CN(c2ccc(-c3ccc(-c4nnn(CCN(C)C)n4)nc3)c(F)c2)C(=O)O1 [AKG-38]
[1]
  Selectivity Index (SI) H37Rv/HepG2: 1616.7
  Selectivity Index (SI) H37Rv/VERO: 6583.3
[3]
  SI-MPS MPS/H37: 0.69
